These are literature values, as cited in paper PMC12399788, “A Comparison of the Molecular Pharmacological Properties of Current Short, Long, and Ultra‐Long‐Acting β2‐Agonists Used for Asthma and COPD” (Pharmacology Research & Perspectives, 2025).

Data set [1] has as its system guinea pig tracheal. Further details: method as in PMID 20402514. To be noted: guinea pig tracheal studies.
For data set [2], the system named is isolated human bronchus.
The test system of data set [3] is human trachea.

For the compound `OCc1cc(C(O)CNCCCCCCOCCCCc2ccccc2)ccc1O` (stereo not drawn) [Salmeterol, salmeterol], in data set [1], the duration result is “over 12 h”. Besides, in data set [2], the “duration relative to formoterol, fenoterol, salbutamol and terbutaline” value is on record as 40 times longer. Moreover, in data set [3], the duration of action is listed as greater than 125 min.
